Assay [1] has as its target T1, Aspergillus fumigatus autophagic serine protease 2 (Alp2) (Aspergillus fumigatus, UniProt P87184 136-495).
T1 construct: range 136-495; Produced active in E. coli periplasm; biotinylated for BLI
T1 sequence: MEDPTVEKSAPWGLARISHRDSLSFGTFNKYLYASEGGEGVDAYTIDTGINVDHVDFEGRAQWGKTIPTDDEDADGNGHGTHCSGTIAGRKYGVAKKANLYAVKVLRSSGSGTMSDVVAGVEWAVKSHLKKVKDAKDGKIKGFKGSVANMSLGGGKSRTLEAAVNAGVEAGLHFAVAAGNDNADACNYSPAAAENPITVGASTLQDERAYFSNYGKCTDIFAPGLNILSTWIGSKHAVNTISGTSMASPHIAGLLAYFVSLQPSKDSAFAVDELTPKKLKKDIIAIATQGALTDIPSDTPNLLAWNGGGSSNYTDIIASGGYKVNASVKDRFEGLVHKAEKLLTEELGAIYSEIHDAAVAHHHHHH
Kind of assay: FRET peptide inhibition assay; KI=IC50/(S/Km+1).

Assay [2] deals with T1, Aspergillus fumigatus autophagic serine …. Description: biolayer interferometry; biotinylated protease on streptavidin sensor, Fab in solution. On the technique in general: BLI is a label-free optical method that tracks binding on a fibre tip over time.

B1: anti-Alp2 Fab A4A1 (Fab, V domains shown)
VH: EVQLVESGGGLVQPGGSLRLSCAASGFNISSYYIHWVRQAPGKGLEWVASIYSYSSYTYYADSVKGRFTISADTSKNTAYLQMNSLRAGDTAVYYCARFGSWSYAIDYWGQGTLVTVSS
VL: DIQMTQSPSSLSASVGDRVTITCRASQSVSSAVAWYQQKPGKAPKLLIYSASSLYSGVPSRFSGSRSGTDFTLTISSLQPEDFATYYCQQASHLITFGQGTKVEIKR
notes: Fab from a synthetic human Fab library, produced in E. coli periplasm; also called Clone A4A1
The Ki is a dissociation constant, usually derived from enzyme kinetics or from competition with a known ligand. High values mean weaker binding, low ones tighter binding. A word on the Kd: it is a measure of binding affinity in units of concentration. A high value points to lower affinity. Molecule B1 displayed a Ki in assay [1] of 0.013 µM. In assay [2], binding was characterised by a dissociation constant (Kd) of 0.011 µM.

B2: anti-Alp2 Fab A4A2 (Fab, V domains shown)
VH: EVQLVESGGGLVQPGGSLRLSCAASGFNLSSSSMHWVRQAPGKGLEWVASIYPSYSYTYYADSVKGRFTISADTSKNTAYLQMNSLRAEDTAVYYCARKTSDQYLLVGGSFFKLRDCCYVMDYWGQGTLVTVSS
VL: B1 VL
notes: Fab from a synthetic human Fab library, produced in E. coli periplasm; also called Clone A4A2
In turn, B2 displayed a Ki in assay [1] of 0.22 µM. Moreover, the Kd in assay [2] came to 0.11 µM.

Source of the values: patent US20200392251A1 (University of California, published 2020).
